Experimental data from patent US20240190862A1 (AMGEN INC., priority 2019, published 2024).
Read-outs that look alike come from different tables or passages of the source.

Amino acid sequences for entries named in this document (tags omitted). Chains listed by the source or under a name are the forms on record and can include a tag or linker. Residues count along the entry.
UniProt P01116, 1-164 with tags or gaps C118A/G12C limits assumed: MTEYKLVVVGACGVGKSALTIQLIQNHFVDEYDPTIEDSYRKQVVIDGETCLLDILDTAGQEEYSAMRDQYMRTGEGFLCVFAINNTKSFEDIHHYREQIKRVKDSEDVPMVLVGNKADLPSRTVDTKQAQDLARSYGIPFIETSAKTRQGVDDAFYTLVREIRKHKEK
UniProt P01116, 1-164 with tags or gaps C118A/G12D limits assumed: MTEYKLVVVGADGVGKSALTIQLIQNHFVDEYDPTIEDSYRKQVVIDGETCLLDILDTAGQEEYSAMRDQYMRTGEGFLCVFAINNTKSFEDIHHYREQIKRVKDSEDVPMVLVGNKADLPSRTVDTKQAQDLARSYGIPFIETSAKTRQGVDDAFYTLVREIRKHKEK

Assays:
[1] = target: GDP-bound KRAS protein (aa 1-169) G12C/C118A (Homo sapiens (Human), UniProt P01116, C118A/G12C); test: Coupled Nucleotide Exchange Assay (KRAS G12C); type: biochemical
Protocol: (§1) Coupled Nucleotide Exchange Assay: Purified GDP-bound KRAS protein (aa 1-169), containing either G12C or G12D, as well as C118A amino acid substitutions and an N-terminal His-tag, was pre-incubated in assay buffer (25 mM HEPES pH 7.4, 10 mM MgCl2, and 0.01% Triton X-100) with a compound dose-response titration for either 5 min or 20 hours (see Table 15). Following compound pre-incubation, purified SOS protein (aa 564-1049) and GTP (Roche 10106399001) were added to the assay wells and incubated for an additional 30 min. To determine the extent of inhibition of SOS-mediated nucleotide exchange, purified GST-tagged cRAF (aa 1-149), nickel chelate AlphaLISA acceptor beads (PerkinElmer AL108R), and AlphaScreen glutathione donor beads (PerkinElmer 6765302) were added to the assay wells and incubated for 10 minutes. The assay plates were then read on a PerkinElmer EnVision Multilabel Reader, using AlphaScreen® technology, and data were analyzed using a 4-parameter logistic model to calculate IC50 values.

[2] = target: GDP-bound KRAS protein (aa 1-169) G12D/C118A (Homo sapiens (Human), UniProt P01116, C118A/G12D); test: Coupled Nucleotide Exchange Assay (KRAS G12D); type: biochemical; conditions: read-out: GDP KRAS G12D 20 h Coupled Exchange IC50 IP; 20 h compound pre-incubation
Protocol: as §1

## Cc1ccnc(C(C)C)c1-n1c(=O)nc(N2CCN(C(=O)COc3c(F)ccc(F)c3F)C[C@@H]2C)c2cc(Cl)c(-c3ccccc3F)nc21
[1]; read-out: GDP KRAS G12C 5 min Coupled Exchange IC50 IP, 5 min compound pre-incubation
  IC50: 38.3 µM
[1]; read-out: GDP KRAS G12C 20 h Coupled Exchange IC50 IP, 20 h compound pre-incubation
  IC50: 1.84 µM
[2]
  IC50: > 250 µM
